Experimental data as given in paper PMC5134833, “The amyloid-beta forming tripeptide cleavage mechanism of γ-secretase” (eLife, 2016).

Molecular target: γ-secretase complex containing presenilin-1 (human) (UniProt P49768)

IC50 of inhibition of γ-secretase activity in vitro (cleavage of C100-FLAG): 150 µM
Substance: VIV tripeptide (APP product tripeptide fragment)
